Laboratory results reported in patent US20140343118A1, “METHODS OF TREATMENT USING ARYLCYCLOPROPYLAMINE COMPOUNDS” (Duke University, priority 2013, published 2014).

Amino acid sequences for entries named in this document (tags omitted).
UniProt P27338, whole entry: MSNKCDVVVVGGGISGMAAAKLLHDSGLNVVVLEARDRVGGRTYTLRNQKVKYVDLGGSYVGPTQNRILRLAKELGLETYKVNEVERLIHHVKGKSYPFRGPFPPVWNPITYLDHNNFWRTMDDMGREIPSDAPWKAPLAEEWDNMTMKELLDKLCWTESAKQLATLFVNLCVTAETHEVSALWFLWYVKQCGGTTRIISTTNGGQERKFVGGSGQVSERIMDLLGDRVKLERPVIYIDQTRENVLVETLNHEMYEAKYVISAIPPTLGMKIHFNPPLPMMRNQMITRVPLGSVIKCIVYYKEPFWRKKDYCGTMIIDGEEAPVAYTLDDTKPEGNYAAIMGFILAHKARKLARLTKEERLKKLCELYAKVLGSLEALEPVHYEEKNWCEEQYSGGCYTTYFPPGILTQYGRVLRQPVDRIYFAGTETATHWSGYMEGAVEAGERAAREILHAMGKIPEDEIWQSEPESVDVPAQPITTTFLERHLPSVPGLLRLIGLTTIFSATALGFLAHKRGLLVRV

Target: MAO B (Homo sapiens, UniProt P27338)
Assay: Inhibition kinetics of MAO B

N[C@@H]1C[C@H]1c1ccccc1 (relative stereo) [Compound 2-PCPA]
inactivation of MAO B: capable of inactivating MAO B
